# AlphaSeq binding of Ab-14 heavy chain variants to a spike HR2 peptide

Binding partner: SARS-CoV-2 spike HR2 peptide, sequence PDVDLGDISGINAS.

The variants keep the light chain, the linker and the frameworks of Ab-14 (scFv order VH, three GGGGS repeats, VL).
VH: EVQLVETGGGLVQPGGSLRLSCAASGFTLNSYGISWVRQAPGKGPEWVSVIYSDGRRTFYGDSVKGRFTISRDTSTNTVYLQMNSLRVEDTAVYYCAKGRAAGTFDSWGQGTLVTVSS
VL: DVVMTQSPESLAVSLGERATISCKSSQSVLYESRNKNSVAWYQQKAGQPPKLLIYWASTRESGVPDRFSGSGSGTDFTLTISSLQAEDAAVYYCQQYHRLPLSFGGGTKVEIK

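The starting antibody came from a phage panning campaign against this peptide. In library AAYL49, one, two or three CDR residues were substituted; doubles and triples were drawn at random. AlphaSeq pools MATa yeast showing the antibodies with MATalpha yeast showing the peptide. The frequency of each diploid, read from paired DNA barcodes, reflects how well the two displayed proteins bind. A regression on co-assayed BCL2-family reference pairs converts the normalised counts of each replicate to an apparent Kd. Mating was done three times.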

Changes read parent residue, position, new residue, counted from the first residue of the VH shown. The read-out is the apparent dissociation constant on a log10 scale (nM): the lower, the stronger. The mean shown is taken over the replicates in which the pair was detected. "ND" means that the variant was in the library but no mating with the target was seen in that replicate; the authors take this as a sign of poor binding, and no number exists. Background: pairings of library AAYL49 with three empty control strains gave a value in 15% of cases (median 4.06, 5th percentile 2.83). Values in that range, when seen in few replicates, are hard to tell from nonspecific mating. For each scFv, signals with the empty controls are counted beside the result.

For R100W T104L S107R, the assay gave ND, ND, ND (controls 1 of 9).
For V50A D62I R100E, the assay gave ND, ND, ND (controls 2 of 9).
For R57I T58H D62T, the assay gave ND, 3.84, ND (controls 1 of 9).
For I51L D54L G55I, the assay gave ND, 4.06, ND (controls 2 of 9).
For Y32P S63G R100T, the assay gave ND, ND, ND (controls 6 of 9).
For I34V S53Y K65C, the assay gave 2.68, 2.58, ND (mean 2.63; controls 0 of 9).
For F27M Y32I F59E, the assay gave ND, ND, ND (controls 0 of 9).
For T58N G103S F105I, the assay gave 3.47, 2.73, ND (mean 3.10; controls 0 of 9).
For G26F G33C Y52G, the assay gave ND, ND, ND (controls 3 of 9).
For G26T R57N, the assay gave 4.21, 4.49, ND (mean 4.35; controls 1 of 9).
For R57I V64T A101F, the assay gave ND, ND, ND (controls 0 of 9).
For S35W D54A R57W, the assay gave 4.89, 3.95, ND (mean 4.42; controls 2 of 9).
For T28S K65R, the assay gave 0.55, 0.63, 0.44 (mean 0.54; controls 0 of 9).
For A102E T104K, the assay gave 5.28, 3.62, ND (mean 4.45; controls 3 of 9).
For Y60I, the assay gave 1.75, 1.88, 2.20 (mean 1.94; controls 0 of 9).
For G26A I51E G55D, the assay gave ND, ND, ND (controls 0 of 9).
For N30R G99F, the assay gave 1.33, 1.57, 1.71 (mean 1.54; controls 0 of 9).
For F27I G55N D106S, the assay gave 4.22, 4.00, ND (mean 4.11; controls 2 of 9).
For T28R V50T, the assay gave ND, ND, ND (controls 2 of 9).
For G33K G99M D106T, the assay gave ND, ND, ND (controls 0 of 9).
For G33Y I34W T104N, the assay gave ND, ND, ND (controls 0 of 9).
For N30P D54R A102F, the assay gave 4.34, 2.92, 4.63 (mean 3.96; controls 1 of 9).
For R57G D62P S107F, the assay gave ND, ND, ND (controls 3 of 9).
For G99W F105K D106P, the assay gave 0.55, 1.01, 0.49 (mean 0.68; controls 0 of 9).
For T28Y Y52H A101Q, the assay gave ND, ND, ND (controls 0 of 9).
For L29Y Y32Q S53P, the assay gave ND, ND, ND (controls 1 of 9).
For F27Q Y52H D62A, the assay gave ND, ND, ND (controls 1 of 9).
For S31N I51K T104P, the assay gave 4.97, ND, ND (controls 1 of 9).
For G26E D54I R57E, the assay gave ND, ND, ND (controls 1 of 9).
For Y52V F59A, the assay gave ND, 5.28, ND (controls 5 of 9).
For G26F G33I S107G, the assay gave 3.70, 5.19, ND (mean 4.44; controls 6 of 9).
For S31I G33P V64T, the assay gave 4.46, 4.95, ND (mean 4.70; controls 4 of 9).
For S31K D62C, the assay gave ND, 3.05, ND (controls 1 of 9).
For Y32V I51Q K65F, the assay gave ND, 4.10, ND (controls 2 of 9).
For T58Y S107W, the assay gave 4.80, ND, 4.00 (mean 4.40; controls 7 of 9).
For S31R Y32A R100T, the assay gave 1.89, 1.98, 2.08 (mean 1.98; controls 4 of 9).
For L29E G61N T104P, the assay gave ND, ND, ND (controls 3 of 9).
For D54E K65F G99I, the assay gave 3.97, ND, ND (controls 1 of 9).
For S31A I34A K65A, the assay gave ND, 3.08, ND (controls 2 of 9).
For L29C Y32S G99A, the assay gave 5.68, 5.45, 4.78 (mean 5.30; controls 5 of 9).
For R100N A102M F105R, the assay gave ND, ND, ND (controls 0 of 9).
For S53M G55E T104Y, the assay gave ND, ND, ND (controls 0 of 9).
For S31G D54C R57M, the assay gave 5.26, ND, ND (controls 0 of 9).
For F27I T58I Y60I, the assay gave ND, 2.97, 5.81 (mean 4.39; controls 3 of 9).
For R57Q S63H V64Q, the assay gave ND, ND, 4.74 (controls 0 of 9).
For N30A S35R R100G, the assay gave ND, ND, 3.54 (controls 3 of 9).
For T28Y N30Q A102P, the assay gave 2.67, 1.94, 2.96 (mean 2.52; controls 1 of 9).
For L29E S53K F59S, the assay gave ND, 5.00, ND (controls 0 of 9).

From the AlphaSeq antibody data of Engelhart et al. 2022 (doi:10.1038/s41597-022-01779-4), copy in the FLAb collection.